Laboratory results taken from patent US20060083748A1, “Calixarenes for use as excipient for an active substance” (priority 2002, published 2006).

Legend:
[1] = Membrane permeation, traditional artificial membrane without hydrophilic pores (Standard); conditions: artificial membrane without hydrophilic pores (transcellular path); 125 or 250 μM, Tris-buffer pH 7.4, 16 hours
[2] = Membrane permeation, PAMPORE system (hydrophilic pores in the lipid layer); conditions: hydrophilic pores in the lipid layer (paracellular path); 125 or 250 μM, Tris-buffer pH 7.4, 16 hours

Tetra [dimethylamino-methyl]-calix[4]arenes
Membrane permeation (%) Standard [1]: <10%
Membrane permeation (%) PAMPORE [2]: 94%
